System: Balb/3T3 cells
Test: Direct in vitro cytotoxicity test (ISO 10993) with MTT test
Conditions: 24 h contact
Experimental: FIG. 14: Cell viability evaluation by MTT test. Balb/3T3 cells were seeded in 24-well plate and put in contact with HA hydrogel discs loaded or not with PARs for 24 h. HA discs correspond to BDDE-crosslinked HA hydrogel discs without PAR, and HA+PARs correspond to HA hydrogels loaded with different PAR concentrations (mg/mL). (A) Cell images after 24 h of direct in vitro cytotoxicity test. (B) Cell viability measured by MTT test. Dashed line corresponds to 70% viability (cytotoxicity limit).
Direct in vitro cytotoxicity test consists in putting material in contact with the cells for 24 h and performing MTT test to evaluate cell viability. According to ISO 10993, the tested material should cover approximately 1/10 of cell layer surface, which corresponds to ˜5 mm hydrogel discs per well of a 24-well plate.
After 24 h at 37° C., hydrogel discs were removed and MTT test was performed in order to measure cell metabolic activity, which often serves to estimate cell viability. […] The number of viable cells correlates to the colour intensity determined by photometric measurements after dissolving the formazan in alcohol (from ISO 10993).
So the discs, loaded or not with PAR, were sterilized and placed onto ˜80% confluent layer of Balb/3T3 cells. For MTT assay, the cells were incubated for 2 h in 0.2 mg/mL MTT-containing cell culture medium. The medium was then removed and formazan was dissolved in DMSO. Absorbance of resulting solutions was measured at 570 nm using spectrophotometer and images were taken around and under the discs to evaluate cell morphology.

[1] = hydrogels loaded with 0.05 mg/mL

Substance: poly-L-arginine [PAR200]
- cytotoxicity by ISO 10993 norms (PAR200-loaded hydrogels, loading concentration not stated): cytotoxic

Substance: poly-L-arginine [PAR30]
- cytotoxicity by ISO 10993 norms (0.1 mg/mL-loaded hydrogels): non-cytotoxic
- cytotoxicity by ISO 10993 norms [1]: non-cytotoxic

Substance: poly-L-arginine [PAR10]
- cytotoxicity by ISO 10993 norms (0.1 mg/mL-loaded hydrogels): non-cytotoxic
- cytotoxicity by ISO 10993 norms [1]: non-cytotoxic

— patent US20220211914A1, “HYALURONIC ACID HYDROGELS WITH PROLONGED ANTIMICROBIAL ACTIVITY” (INSTITUT NATIONAL DE LA SANTE ET DE LA RECHERCHE MEDICALE …, priority 2019, published 2022)
